## Apparent affinities of Ab-91 variants for a coronavirus HR2 peptide

Target peptide (SARS-CoV-2 spike, HR2 region): PDVDLGDISGINAS

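In library AAYL51, one, two or three CDR residues were substituted; doubles and triples were drawn at random. The assay is AlphaSeq: two haploid yeast populations carry antibody and antigen on their surface. The frequency of each diploid, read from paired DNA barcodes, reflects how well the two displayed proteins bind. The ratio of observed to expected reads was calibrated, replicate by replicate, on BCL2-family standards whose Kd was known from biolayer interferometry. Each pool was mated in three replicate cultures.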

Parent scFv Ab-91: VL joined to VH by a 15-residue (Gly4Ser)3 linker. Changes lie in the heavy chain CDRs alone.
VL: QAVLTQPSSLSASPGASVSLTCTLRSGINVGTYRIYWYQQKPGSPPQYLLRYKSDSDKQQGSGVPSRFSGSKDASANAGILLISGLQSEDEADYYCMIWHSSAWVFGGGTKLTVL
VH: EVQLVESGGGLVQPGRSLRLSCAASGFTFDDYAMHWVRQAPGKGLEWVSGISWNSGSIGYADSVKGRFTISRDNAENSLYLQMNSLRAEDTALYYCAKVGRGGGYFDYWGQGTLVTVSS

Substitutions are numbered in sequence along the VH above, starting at 1 (not Kabat). These are single substitutions, in order of position. Kd is apparent (estimated from mating counts) and averaged on the log scale over replicates with a signal. Smaller is tighter. An entry "nd" has no value in the source: the pair was not observed among the diploids in any replicate. This suggests poor binding but is not conclusive.

| changes | Kd (apparent) | seen in |
|---|---|---|
| Y105F | 390 nM | 2 of 3 |
| F106K | 270 nM | 3 of 3 |
| F106S | 84 µM | 2 of 3 |
| F106N | nd | 0 of 3 |
| F106W | 300 nM | 3 of 3 |
| F106L | 6.7 µM | 3 of 3 |
| F106M | nd | 0 of 3 |
| F106R | 78 µM | 3 of 3 |
| F106H | nd | 0 of 3 |
| F106Y | 190 nM | 3 of 3 |
| F106V | nd | 0 of 3 |
| F106P | 62 µM | 2 of 3 |
| F106T | 30 µM | 3 of 3 |
| D107C | 14 µM | 3 of 3 |
| D107V | 12 µM | 1 of 3 |
| D107Y | nd | 0 of 3 |
| D107S | 2.3 nM | 3 of 3 |
| D107F | nd | 0 of 3 |
| D107R | 340 µM | 3 of 3 |
| D107I | nd | 0 of 3 |
| D107A | 8.1 µM | 1 of 3 |
| D107W | 93 µM | 2 of 3 |
| D107Q | 34 µM | 2 of 3 |
| D107M | nd | 0 of 3 |
| D107L | 17 µM | 2 of 3 |
| D107H | 17 µM | 1 of 3 |
| D107T | 79 µM | 1 of 3 |
| D107N | 29 µM | 2 of 3 |
| Y108Q | 110 µM | 1 of 3 |
| Y108F | 4.1 µM | 1 of 3 |
| Y108G | 530 nM | 3 of 3 |
| Y108C | 65 µM | 1 of 3 |
| Y108M | 620 nM | 3 of 3 |
| Y108S | 1.7 nM | 3 of 3 |
| Y108H | 12 nM | 3 of 3 |
| Y108L | 3.5 nM | 3 of 3 |
| Y108D | nd | 0 of 3 |
| Y108T | 4.2 nM | 3 of 3 |
| Y108N | 1.5 µM | 3 of 3 |
| Y108W | 13 nM | 3 of 3 |

The 5 strongest on average among those seen in every replicate, once more:

| changes | Kd (apparent) | seen in |
|---|---|---|
| Y108S | 1.7 nM | 3 of 3 |
| D107S | 2.3 nM | 3 of 3 |
| Y108L | 3.5 nM | 3 of 3 |
| Y108T | 4.2 nM | 3 of 3 |
| Y108H | 12 nM | 3 of 3 |

In this assay the parent's reference entry averaged 72 nM; its copy inside this library read 7.5 nM. Nonspecific signal, from three strains lacking the peptide, appeared in 21% of pairings of library AAYL51, centred on 34 µM (5% of these signals below 1.8 µM); values are not corrected for it.

The measurements come from Engelhart et al. 2022 (doi:10.1038/s41597-022-01779-4) through the FLAb antibody collection.